Tested on: 3T3-L1 (Mus musculus)
Assay: Inhibition of [1-14C]sodium acetate uptake in mouse 3T3-L1 cells at 2 uM

inhibition | Compound
67% | COC(=O)CC/C(C)=C/Cc1c(O)c2c(c(C)c1OC)COC2=O
14% | COc1c(C)c2c(c(OC)c1C/C=C(\C)CCC(=O)O)C(=O)OC2
